Test system: Wnt11-RFP UB organoid
Experiment: Stage III 1st round screening of growth factors and small molecules for UB organoid culture condition
Assay type: cell-based, mouse
Details: reagent added to FGF9 + C3 + TTNPB + GDNF; compared to that control group
Excerpt: We employed this Wnt11-RFP reporter system as a readout to screen for a culture condition that maintained the progenitor identity of UPCs in vitro. T-shaped UBs were manually isolated from E11.5 kidneys of Wnt11-RFP mice, and immediately embedded into Matrigel to set up a 3D culture platform that supported epithelial branching. In this 3D culture format, built on previous efforts towards the ex vivo culture of UB, hundreds of different combinations of growth factors and small molecules were tested (see also the Materials and Techniques section below for details under subheading “Screening for optimal UB culture condition”).
We systematically screened the optimal UB culture condition in four different stages (Stages I-IV).
In Stage III, based on the optimized recipe consisting of FGF9, TTNPB, CHIR99021 (3 μM) and GDNF, we preformed our 1st round of screening of growth factors and small molecules targeting major developmental pathways (e.g. TGF-β, BMP, Wnt, FGF, Hedgehog and Notch) and others. The branching morphogenesis, growth rate and Wnt11-RFP were recorded as readouts (Table 1). […] Representative images were taken at least for LDN193189, A83-01, and R-Spondin 1. […]

TNF-α: reagent tested in screening
Wnt11-RFP: Worse
